Results taken from patent US9744172B2 (priority 2010, dated 2017).

Amino acid sequences for entries named in this document (tags omitted). Residues count along the entry.
UniProt Q12866, 21-999: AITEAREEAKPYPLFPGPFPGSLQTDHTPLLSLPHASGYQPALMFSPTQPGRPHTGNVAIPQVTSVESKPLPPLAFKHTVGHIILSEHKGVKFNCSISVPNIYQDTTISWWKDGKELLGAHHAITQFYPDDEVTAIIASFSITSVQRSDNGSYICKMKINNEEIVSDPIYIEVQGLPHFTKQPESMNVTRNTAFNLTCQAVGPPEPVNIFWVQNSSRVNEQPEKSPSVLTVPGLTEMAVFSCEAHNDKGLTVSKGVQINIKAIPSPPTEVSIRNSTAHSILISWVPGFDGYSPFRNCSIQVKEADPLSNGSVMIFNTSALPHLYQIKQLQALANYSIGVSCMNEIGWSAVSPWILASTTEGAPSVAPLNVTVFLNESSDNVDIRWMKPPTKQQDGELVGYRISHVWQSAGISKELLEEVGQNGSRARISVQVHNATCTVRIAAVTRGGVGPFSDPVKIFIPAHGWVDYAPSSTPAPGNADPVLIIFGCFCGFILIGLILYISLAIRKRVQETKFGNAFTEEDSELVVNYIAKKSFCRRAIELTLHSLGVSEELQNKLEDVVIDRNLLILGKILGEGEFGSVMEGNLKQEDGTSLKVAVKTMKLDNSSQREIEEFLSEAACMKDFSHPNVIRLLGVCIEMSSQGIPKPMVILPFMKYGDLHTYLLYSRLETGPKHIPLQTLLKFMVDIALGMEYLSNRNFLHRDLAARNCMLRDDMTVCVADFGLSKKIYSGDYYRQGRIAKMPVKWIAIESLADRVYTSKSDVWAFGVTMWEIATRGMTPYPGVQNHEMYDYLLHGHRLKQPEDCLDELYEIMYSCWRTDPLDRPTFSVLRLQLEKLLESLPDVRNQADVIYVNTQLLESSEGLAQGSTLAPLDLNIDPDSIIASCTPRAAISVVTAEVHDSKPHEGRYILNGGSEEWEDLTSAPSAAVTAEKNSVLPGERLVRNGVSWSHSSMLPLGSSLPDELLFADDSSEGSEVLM

Biological target: Mer receptor tyrosine kinase (Mer) (Homo sapiens (Human), UniProt Q12866)

CCCCCNc1ncc2c(-c3ccccc3)nn(CC3CCC(NC(=O)OC(C)(C)C)CC3)c2n1 (stereo not shown) [UNC00000461A]
Mer IC50: −

CN(C)CCCNc1ncc2c(-c3ccccc3)nn(CC3CCC(N)CC3)c2n1 (stereo not shown) [UNC00000473A]
Mer IC50: −

COc1ccc(Nc2ncc3c(-c4ccccc4)nn(C(C)C)c3n2)cc1 [UNC1000A]
Mer IC50: −

CC(C)n1nc(-c2ccccc2)c2cnc(Nc3ccc(F)cc3)nc21 [UNC1001A]
Mer IC50: −
